Results as given in patent publication US20230390411A1, “CONJUGATE AND USE THEREOF” (NANJING CHEMPION BIOTECHNOLOGY CO., LTD., priority 2021, published 2023).

Test system: HER2-positive NCI-N87 cells
Experiment: Assay of FACS binding specificity
Details: FACS binding to NCI-N87 cells; for EC50: 4° C. 1 hour, max 100 nM
Method: When the confluence of cultured NCI-N87 cells reached 70-90%, the adherent cells were digested with trypsin. The digestion was terminated with RPMI 1640 medium (Gibco, 22400-089) containing 10% FBS (ExCell Bio, FND500). The cell suspension was centrifuged at 1500 rpm at 4° C. for 5 minutes (Eppendorf, 5810R). Then the cells were resuspended by adding PBS containing 1% BSA, and the cell suspension was adjusted to a density of 1×10^6 cells/mL. 100 μL of cell suspension with 1×10^6 cells/mL was added to each well of a 96-well round-bottom microplate (Corning, 3799). The plate was centrifuged and the supernatant was discarded. ADC or monoclonal sample was serially diluted in a ratio of 1:5 (with a maximum concentration of 100 nM) in PBS containing 1% BSA, and 100 μL of the diluted sample was added to each well. The plate was incubated at 4° C. for 1 hour. At the same time, human IgG1 antibody was used as an isotype control. After the incubation was completed, each well was washed twice by adding 160 μL of PBS containing 1% BSA, and then 100 μL of goat anti-human-IgG Fc—Alexa 647 antibody diluted in a ratio of 1:500 in PBS containing 1% BSA was added as a secondary antibody. The plate was incubated at 4° C. for 30 minutes in the dark. After the incubation was completed, the plate was washed twice and the cells were resuspended in 80 μL of PBS containing 1% BSA. The fluorescence intensity was detected by flow cytometry (BD Biosciences, FACS CantoII), and the fluorescence value was expressed as mean fluorescence intensity (MFI).
The raw data obtained from the FACS assay were analyzed with FlowJo software, and the EC50 value was calculated by using GraphPad Prism 6 non-linear four-parameter non-linear regression with the sample wells not containing antibodies or in which only a secondary antibody was incubated as the background fluorescence intensity of cells.

EC50 (Table 1): 1.54 nM
EC50 (Table 2): 2.1 nM
EC50 (Table 3): 1.38 nM
Substance: mAb-Herceptin: naked Herceptin antibody, internalizing anti-human her2 antibody
Max MFI (Table 1): 51000.0
Max MFI (Table 2): 106000
Max MFI (Table 3): 123000
